Patent US9120797B2, “Process for preparing spirocyclic cyclohexane compounds, compositions containing such compounds and method of using such compounds” (dated 2015)

Legend:
mice = assay: Tail flick test in mice; settings: dose 1 mg/kg, % of maximum possible antinociceptive effect
[1] = Investigations of cardiovascular tolerability; settings: compared with the opioids fentanyl and sufentanil

| SMILES | Tail flick (mouse, i.v.) % inhibition (dose [mg/kg]) (mice) | cardiovascular tolerability [1] |
| --- | --- | --- |
| CC1Cc2c([nH]c3ccccc23)C2(CCC(c3ccccc3)(N(C)C)CC2)N1 (centres unmarked) | 100% (1) |  |
| CN(C)C1(c2ccccc2)CCC2(CC1)OCCc1c2[nH]c2ccccc12 (single isomer, unassigned) |  | has advantages in respect of cardiovascular tolerability |
